The test system of experiment [1] is L-NAME-induced hypertension. The experiment can be described thus: Effect of CGRP, with or without progesterone, on L-NAME-induced hypertension during pregnancy and postpartum. It counts as in vivo, rat. The protocol:
The effects of hypertensive agent L-NAME (50 mg/rat) on blood pressure were studied. […] L-NAME was infused as described in the FIG. 2.

The test system of experiment [2] is pregnant rats. The experiment in a line: Delivery day and pup survival after L-NAME infusion to pregnant rats; effect of CGRP on fetal survival. It counts as in vivo. Particulars: "preeclamptic" (L-NAME) animals treated with CGRP; FIG. 3; 5 rats per group. From the text:
The data in Table 2 below show the delivery day and the pups survival following delivery of L-NAME infusion to pregnant rats.
Thus CGRP and CGRP/amylin/adrenomedullin or their receptor-based peptide or non-peptide agonists compounds administered to "preeclamptic" group of animals provides a highly significant advantage to survival of the fetus under these conditions.

The text below walks through data of patent publication US5910482A, “Treatment or prevention of preeclampsia, eclampsia with calcitonin gene related peptide, CGRP analog, progestational agent, nitric oxide source, and cyclooxygenase inhibitor” (priority 1996, dated 1999).

Take “calcitonin gene-related peptide (ACDTATCVTHRLAGLLSRSGGVVKNNFVPTNVGSKAF; Calcitonin gene-related peptide 1; UniProt P06881 83-119, looked up) [CGRP, 37-amino acid vasodilator neuropeptide, synthesized by Merrifield t-Boc solid-phase chemistry]”: the “Effect on L-NAME-induced hypertension” value in experiment [1] (CGRP alone, postpartum period, when circulating progesterone levels are minimal) is recorded as “ineffective”; in experiment [1] (during pregnancy, when progesterone levels are elevated, L-NAME 50 mg/rat), “completely reduced L-NAME-induced hypertension”. The Fetal survival rate entry in experiment [2] is reported as “significantly improves the fetal survival rate”.
